Assay results reported in US6599896B1, “Use of tianeptine in the production of medicaments to treat neurodegenerative pathologies” (Les Laboratoires Servier, priority 1999, dated 2003).

Tested on: purified embryonic motoneurons
Test: Death of motoneurons deprived of growth factors (survival count)
Format: cell-based, rat
Conditions: 2.5 days of culture; FIG. 5

CN1c2ccccc2C(NCCCCCCC(=O)O)c2ccc(Cl)cc2S1(=O)=O (stereo not shown) [tianeptine]
survival of motoneurons deprived of growth factors: prevents the motoneurons from dying
